Experimental data reported in BindingDB's records for doi:10.1038/nchembio.2140 (Friedrich Miescher Institute For Biomedical Research, 2016).

Protein sequences, listed by entry. Tags and fused reporters are not part of them. Lines headed by an entry give the natural chain unless they say otherwise; changes in a name come on top.
UniProt Q9UQL6: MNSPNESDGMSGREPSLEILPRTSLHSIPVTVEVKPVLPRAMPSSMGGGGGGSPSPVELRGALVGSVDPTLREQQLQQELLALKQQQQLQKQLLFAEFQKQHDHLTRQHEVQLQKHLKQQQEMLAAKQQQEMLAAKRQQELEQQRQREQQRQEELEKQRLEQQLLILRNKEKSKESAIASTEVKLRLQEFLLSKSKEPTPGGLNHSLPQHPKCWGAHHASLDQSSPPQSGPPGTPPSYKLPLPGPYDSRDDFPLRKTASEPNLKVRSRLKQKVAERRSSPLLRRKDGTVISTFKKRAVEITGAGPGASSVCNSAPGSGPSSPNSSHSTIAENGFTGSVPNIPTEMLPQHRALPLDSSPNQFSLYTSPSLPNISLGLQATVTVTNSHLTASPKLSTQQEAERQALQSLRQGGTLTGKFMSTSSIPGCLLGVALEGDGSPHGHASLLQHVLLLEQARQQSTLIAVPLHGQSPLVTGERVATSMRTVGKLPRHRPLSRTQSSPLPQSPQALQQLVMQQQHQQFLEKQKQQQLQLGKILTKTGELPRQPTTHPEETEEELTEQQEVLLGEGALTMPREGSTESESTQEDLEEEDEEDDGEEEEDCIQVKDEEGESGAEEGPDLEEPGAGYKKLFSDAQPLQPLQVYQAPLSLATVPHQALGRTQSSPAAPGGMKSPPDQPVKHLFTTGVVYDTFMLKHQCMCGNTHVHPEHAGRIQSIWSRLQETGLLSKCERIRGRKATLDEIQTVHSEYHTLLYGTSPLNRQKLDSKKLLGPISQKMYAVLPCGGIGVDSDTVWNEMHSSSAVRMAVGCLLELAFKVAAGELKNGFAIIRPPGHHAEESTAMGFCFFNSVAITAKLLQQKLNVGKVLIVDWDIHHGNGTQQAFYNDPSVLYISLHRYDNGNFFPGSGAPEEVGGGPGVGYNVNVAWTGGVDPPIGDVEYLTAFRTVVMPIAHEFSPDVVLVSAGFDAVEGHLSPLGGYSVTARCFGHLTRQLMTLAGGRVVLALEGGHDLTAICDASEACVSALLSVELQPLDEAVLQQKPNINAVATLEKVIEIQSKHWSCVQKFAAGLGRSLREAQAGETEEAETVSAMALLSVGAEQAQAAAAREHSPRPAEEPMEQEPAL

Columns and labels:
[1] = target: T1, Histone deacetylase 6 [25-831] (Danio rerio, UniProt F8W4B7); experiment: HDAC activity assays
T1 construct: 25-831
T1 sequence (F8W4B7 whole entry): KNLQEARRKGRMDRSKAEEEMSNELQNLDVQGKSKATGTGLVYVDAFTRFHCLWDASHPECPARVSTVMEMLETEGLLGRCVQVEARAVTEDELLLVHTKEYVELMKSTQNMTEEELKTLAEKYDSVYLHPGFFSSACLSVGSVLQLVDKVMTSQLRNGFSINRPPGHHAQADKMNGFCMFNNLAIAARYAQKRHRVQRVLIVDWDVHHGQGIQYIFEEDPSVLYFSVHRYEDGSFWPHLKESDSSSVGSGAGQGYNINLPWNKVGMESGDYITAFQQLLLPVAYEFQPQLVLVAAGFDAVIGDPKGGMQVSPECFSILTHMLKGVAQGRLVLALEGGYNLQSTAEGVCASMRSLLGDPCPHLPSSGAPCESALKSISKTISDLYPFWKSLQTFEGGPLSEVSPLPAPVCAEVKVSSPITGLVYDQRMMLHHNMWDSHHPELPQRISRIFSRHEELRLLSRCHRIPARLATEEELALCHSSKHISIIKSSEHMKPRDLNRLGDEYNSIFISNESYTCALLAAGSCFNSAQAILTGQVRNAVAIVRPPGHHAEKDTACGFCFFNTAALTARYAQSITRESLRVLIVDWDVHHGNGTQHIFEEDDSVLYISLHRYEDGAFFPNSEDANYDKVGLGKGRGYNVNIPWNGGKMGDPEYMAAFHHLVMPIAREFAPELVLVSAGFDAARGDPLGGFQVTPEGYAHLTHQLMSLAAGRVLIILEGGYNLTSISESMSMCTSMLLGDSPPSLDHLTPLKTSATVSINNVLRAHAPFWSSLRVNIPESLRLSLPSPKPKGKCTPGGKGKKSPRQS

Histone deacetylase 5 = Histone deacetylase 5 (Homo sapiens, UniProt Q9UQL6); experiment: HDAC activity assays

Row | IC50 [1] [µM] | IC50 (Histone deacetylase 5) [µM] | SMILES
1 | 0.00545 | 4.39 | C/C(=C\[C@H](C)/C=C/C(=O)NO)C(=O)c1ccc(N(C)C)cc1 [R-TSA]
2 |  | 6.32 | C/C(=C\[C@@H](C)/C=C/C(=O)NO)C(=O)c1ccc(N(C)C)cc1 [S-TSA]
